# From patent US20060178394A1, “Pharmaceutical compositions comprising apomorphine for pulmonary inhalation” (priority 2003, published 2006)
# Counter-ions that a name gives are not always drawn.
# Settings: inhaled; phase 1 study
# Protocol: A phase I, double blind, randomised, placebo controlled study was conducted examining the safety, tolerability and pharmacokinetics of single 600 μg, 900 μg and 1200 μg doses in 16 healthy male volunteers. No evaluation for efficacy was conducted during the clinical study.
structure (smiles),measurement,value
"CN1CCc2cccc3c2[C@H]1Cc1ccc(O)c(O)c1-3 [Apomorphine HCl, apomorphine hydrochloride]",Maximum tolerated dose,around 900 μg
